This note sets out measurements from patent US11331371B2, “Labyrinthopeptins as anti-viral agents” (Helmholtz-Zentrum Für Infektionsforschung GMBH, priority 2015, dated 2022).

Broadly, the pIC50 is the negative decadic logarithm of the IC50, by convention in mol/L. As a reminder, the IC90 is the concentration needed for an effect of 90%.

The test system of data set [1] is Dengue Virus (Type 2 New Guinea C). The experiment in a line: Dose response assay, DENV infection of Huh-7.5 cells, DENV envelope protein immunostaining, high-content imaging. It is filed as cell-based. Conditions: MOI 0.5, 48 h post-infection, read-out: IC50 of the anti-viral activity, DENV. As to the method:
Huh-7.5 cells (3×10^4 per well) were seeded in black 96-well optical-bottom plates [Nunc] in full growth medium one day prior to infection. After washing with PBS, 40 μl assay medium (5% FBS) was added to cells containing either Laby A1, Laby A2 (final conc. 50, 16.7, 5.56, 1.85, 0.62, 0.21, 0.069 μg/ml) or a combination of Laby A1 and Laby A2 (25, 8.3, 2.8, 0.93, 0.31, 0.10, 0.034 μg/ml each). Treatments were run in doublets. PBS served as a control. After 30 min of incubation, cells were infected with Dengue Virus (Type 2 New Guinea C) at an MOI of 0.5 to give a final volume of 60 μl/well. […]
Fluorescent cells were analyzed by high-content imaging using the automated microscope ImageXpressMicro [Molecular Devices] and the MetaXpress-software. […] The number of total cells/site was determined by automatically counting DAPI-stained nuclei. The percentage of DENV-positive cells was calculated by automatically evaluating the number of Alexa Fluor 488-positive cells in relation to the total cell number. […] IC50-values were calculated by non-linear regression.
To determine a potential synergistic effect of Labyrinthopeptins A1 and A2 on DENV-infection a dose response assay was performed. […] The number of total cells as well as the percentage of Alexa Fluor 488-positive cells (=DENV positive cells) was determined by high-content fluorescence imaging.

Data set [2] can be described thus: Cell-based HTS system for cytotoxic concentration (CC50), FF-luc HEp-2 cells. Conditions: 72 h, concentrations up to 100 μM, read-out: half maximal cytotoxic concentration (CC50). The procedure: Cells (e.g. HEp-2 cells), which stably express the reporter gene of a firefly luciferase (FF-luc), may be seeded in a 96-well plate in media, e.g. in Gibco® Advanced MEM. After 72 h of incubation at 37° C. in the presence of increasing concentrations of the labyrinthopeptin, labyrinthopeptin derivative or combination to be tested (e.g. up to 100 μM), the cells may be lysed and the extinction of the FF-luc (RLU) may be measured. Therefore, a plate luminometer (Berthold) may be used. The number of surviving cells is […] proportional to residual luciferase expression.
A cell-based screening system was used to determine the cytotoxic concentration (CC50) of labyrinthopeptin A1 and A2.
1×10^4 HEp-2 cells, which are stably expressing the reporter gene of a firefly luciferase (FF-luc), were seeded in a 96-well plate in 200 μl appropriate media. After 72 h of incubation at 37° C. in the presence of increasing concentrations of labyrinthopeptin A1 or A2 up to 100 μM, the cells have been lysed in 35 μl lysis buffer and the extinction of the FF-luc (RLU) was measured using a plate luminometer (Berthold). The number of surviving cells is […] proportional to residual luciferase expression.

The next data set relates to wild-type RSV (hRSV). Conditions: read-out: IC50 of the anti-viral activity, RSV; intracellular RSV-P staining, HEp 2 cells, MOI 1, 18 h post infection.
Data set [3] deals with human respiratory syncytial virus (RSV). As to conditions: read-out: IC50, inhibition of RSV induced cell death; FF-luc HEp-2 cells, MOI 3, 72 h, indirect assay.
Another data set relates to KSHV. As to conditions: read-out: IC50 of the anti-viral activity, KSHV; HEK 293 cells, MOI 0.01, 48 h.
Data set [4] concerns GFP-expressing CMV (HCMV) strain pHG-1 (HT8-GFP, AD169-based). As to conditions: read-out: IC50 of the anti-viral activity, CMV, NHDF cells, MOI 0.5, GFP at day 4 post infection.
In another data set the test system is ZIKV (Strain MR766-NIID). As to conditions: read-out: IC50 of the anti-viral activity, ZIKV; Huh-7.5 cells, MOI 0.5, 48 h, genome copy equivalents.
A further data set concerns HCV JcR2a. Conditions: Huh 7.5 Fluc cells, Renilla luciferase after 48 h.
The test system of another data set is Huh 7.5 Fluc cells. The data set is described as follows: Cell viability (firefly luciferase) in the HCV assay.

The structures appear in SMILES notation. pIC50: −log10 of the molar value. Read-outs that look alike come from different tables or passages of the source.

Turning to `CC(C)C[C@@H]1NC(=O)[C@]23CSC[C@H](NC(=O)[C@H](C)NC(=O)[C@H](Cc4ccccc4)NC1=O)C(=O)N[C@H](C(=O)O)CSSC[C@H](NC(=O)[C@@H]1CSC[C@]4(C[C@H](N)C(=O)N[C@@H](CC(=O)O)C(=O)N[C@@H](Cc5c[nH]c6ccccc56)C(=O)N4)C(=O)N[C@@H](CC(C)C)C(=O)N[C@@H](Cc4c[nH]c5ccccc45)C(=O)N[C@@H](CCC(=O)O)C(=O)N1)C(=O)N[C@@H](C2)C(=O)N[C@@H]([C@@H](C)O)C(=O)NCC(=O)N3` [LabyA2, Labyrinthopeptin A2], the negative-log IC50 (pIC50) in [1] was 5.10; with wild-type RSV (hRSV) it was 5.30; in [3], 4.32; in the data set on KSHV, 4.82; in data set [4], 5.27; in data set [4] (listed as Labyrinthopeptin A2) it was approximately 5.27. Also, the pIC50 was 5.55 with ZIKV (Strain MR766-NIID) and 5.76 with HCV JcR2a (read-out: IC50 of the anti-viral activity, HCV (virus entry), 4 h inoculation). For the same molecule, the CC50 in [2] is more than 100 µM. Besides, the IC90 in the data set with HCV JcR2a (read-out: IC90, inhibition of HCV virus entry) was 24.9 µM. In addition, the “cytotoxicity at the tested concentrations in the HCV assay” value with Huh 7.5 Fluc cells was “No cytotoxicity was observed”.
